Measurements reported in patent publication US9238626B2 (priority 2012, dated 2016).
Counter-ions that a name gives are not always drawn.

By UniProt entry, the sequences of proteins in these tests, tags left out. Residues count along the entry.
UniProt P22303, 32-614: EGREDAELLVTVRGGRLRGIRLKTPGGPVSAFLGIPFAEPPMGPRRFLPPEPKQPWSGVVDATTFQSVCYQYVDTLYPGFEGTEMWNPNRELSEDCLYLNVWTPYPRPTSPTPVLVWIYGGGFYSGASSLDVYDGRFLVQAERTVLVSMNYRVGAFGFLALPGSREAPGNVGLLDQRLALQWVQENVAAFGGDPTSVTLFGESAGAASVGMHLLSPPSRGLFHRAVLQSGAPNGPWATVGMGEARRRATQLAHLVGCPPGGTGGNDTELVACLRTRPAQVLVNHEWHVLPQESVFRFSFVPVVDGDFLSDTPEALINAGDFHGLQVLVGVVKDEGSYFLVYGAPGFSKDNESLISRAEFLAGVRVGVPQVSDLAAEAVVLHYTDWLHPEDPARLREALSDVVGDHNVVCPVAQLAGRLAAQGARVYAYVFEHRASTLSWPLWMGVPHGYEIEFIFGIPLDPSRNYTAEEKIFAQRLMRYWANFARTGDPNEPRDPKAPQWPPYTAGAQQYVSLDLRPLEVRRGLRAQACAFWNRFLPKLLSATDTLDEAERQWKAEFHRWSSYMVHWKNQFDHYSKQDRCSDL
UniProt P06276, 29-602: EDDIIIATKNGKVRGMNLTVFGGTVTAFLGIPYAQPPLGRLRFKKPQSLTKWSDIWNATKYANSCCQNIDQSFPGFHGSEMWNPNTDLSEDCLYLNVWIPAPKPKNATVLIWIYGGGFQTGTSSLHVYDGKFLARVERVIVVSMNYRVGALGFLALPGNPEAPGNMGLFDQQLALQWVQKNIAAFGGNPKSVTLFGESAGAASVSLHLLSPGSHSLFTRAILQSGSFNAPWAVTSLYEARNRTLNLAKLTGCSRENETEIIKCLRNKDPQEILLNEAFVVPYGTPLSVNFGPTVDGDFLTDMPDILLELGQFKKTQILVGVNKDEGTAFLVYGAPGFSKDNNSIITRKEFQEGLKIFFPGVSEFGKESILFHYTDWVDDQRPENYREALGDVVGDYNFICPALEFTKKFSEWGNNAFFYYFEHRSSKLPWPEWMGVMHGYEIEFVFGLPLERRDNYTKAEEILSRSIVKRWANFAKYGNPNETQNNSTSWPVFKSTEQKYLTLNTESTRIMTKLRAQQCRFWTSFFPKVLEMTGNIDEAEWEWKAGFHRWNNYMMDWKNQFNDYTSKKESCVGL

How the values were obtained:
[1] = target: recombinant human AChE (hAChE) (Homo sapiens (Human), UniProt P22303); conditions: read-out: IC50 hAChE
From the text: The results were plotted by placing the percentage of inhibition in function of the decimal log of the final inhibitor concentration.

[2] = target: human serum BChE (Homo sapiens (Human), UniProt P06276); experiment: BChE inhibition assay (Ellman); type: biochemical; conditions: read-out: IC50 hBChE
Experimental: BChE inhibitory activity determinations were carried out similarly by the method of Ellman et al., using 0.02 unit/mL of human serum BChE and 300 μM butyrylthiocholine, instead of AChE and acetylthiocholine, in a final volume of 300 μL.
Results are expressed as mean±S.E.M. of at least 4 experiments performed in duplicate. DTNB, acetylthiocholine, butyrylthiocholine, and enzymes were purchased from Sigma.

`CC1=C[C@H]2Cc3nc4cc(Cl)ccc4c(NCCCCCCCCCNC(=O)c4cc(O)c5c(c4)C(=O)c4cccc(O)c4C5=O)c3[C@@H](C1)C2` [(+)-(Ib)•HCl, (+)-(7R,11R)—N-{9-[(3-chloro-6,7,10,11-tetrahydro-9-methyl-7,11-methanocycloocta[b]quinolin-12-yl)amino]nonyl}-9,10-dihydro-4,5-dihydroxy-9,10-dioxoanthracene-2-carboxamide] was tested, and the IC50 [1] was 2.93 ± 0.285 µM and the IC50 [2] was 0.265 ± 0.021 µM.
Work on `CC1=C[C@@H]2Cc3nc4cc(Cl)ccc4c(NCCCCCCCCCNC(=O)c4cc(O)c5c(c4)C(=O)c4cccc(O)c4C5=O)c3[C@H](C1)C2` [(−)-(Ib)•HCl, (−)-(7S,11S)—N-{9-[(3-chloro-6,7,10,11-tetrahydro-9-methyl-7,11-methanocycloocta[b]quinolin-12-yl)amino]nonyl}-9,10-dihydro-4,5-dihydroxy-9,10-dioxoanthracene-2-carboxamide] yielded an IC50 [1] of 0.0024 ± 0.0002 µM and an IC50 [2] of 0.513 ± 0.058 µM.
